The source of these data is patent publication US4780238A (priority 1985, dated 1988).

A short description of the experiment: In vitro chelation assay (mouse liver suspension, PAO-1 extracts). As to conditions: for % Th Liver / % Th Supernatant: mouse liver suspension, 27 ppm thorium, ambient room temperature.

As to Thorium succinate, the “% Th Liver” value was determined as 97% and the “% Th Supernatant” value turned out to be 3%.

As for thorium nitrate, the “% Th Liver” value amounted to 99% and the “% Th Supernatant” value worked out at 1%. The “thorium adsorbed by the liver” value (27 ppm Th, within experimental error) is “all of the thorium”.
